The target in series [1] is T1, KOR (Homo sapiens, UniProt P41145). The experiment in a line: KOR1 DISCOVERX β-Arrestin […] assay, antagonist mode (KOR DRX). The format is cell-based. The conditions noted are these: estimate; read-out: IC50 inhibition of KOR response to dynorphin A (DISCOVERX). From the text: (§1) In this campaign, two assay platforms were employed to evaluate KOR activity and selectivity: the KOR1 DISCOVERX β-Arrestin […] assay and an imaging based β-arrestin translocation assay for confirmatory and selectivity assays. The KOR1 DISCOVERX β-Arrestin […] assay is a commercial platform for direct measurement of GPCR (G protein-coupled receptor) activation by detection of β-Arrestin binding to the KOR. […] In cells that stably express these fusion proteins, ligand stimulation results in the recruitment of β-Arrestin by the GPCR. This interaction encourages the complementation of the two β-galactosidase fragments resulting in the formation of a functional enzyme that converts substrate in the assay medium to a detectable signal. […]
(§2) Initially, a portion (approximately 290,000 compounds) of the MLSMR compound collection was tested in the KOR1 DISCOVERX β-arrestin primary kappa opioid (KOP) agonist and antagonist screens (PUBCHEM AID 1777 and 1778, respectively) at a single concentration point (10 μM). […] The KOR:DOR:MOR selectivity of the compounds was determined using the analogous β-arrestin translocation assays for the DOR (PUBCHEM AID 2370 and 2357, for agonists and antagonist, respectively) and the MOR (PUBCHEM AID 2352 and 2420, for agonists and antagonists, respectively).

By UniProt entry, the sequences of proteins in these tests, tags left out. Where a name states a change or a piece, a line headed by the entry shows the natural chain unless it says otherwise.
UniProt P41145: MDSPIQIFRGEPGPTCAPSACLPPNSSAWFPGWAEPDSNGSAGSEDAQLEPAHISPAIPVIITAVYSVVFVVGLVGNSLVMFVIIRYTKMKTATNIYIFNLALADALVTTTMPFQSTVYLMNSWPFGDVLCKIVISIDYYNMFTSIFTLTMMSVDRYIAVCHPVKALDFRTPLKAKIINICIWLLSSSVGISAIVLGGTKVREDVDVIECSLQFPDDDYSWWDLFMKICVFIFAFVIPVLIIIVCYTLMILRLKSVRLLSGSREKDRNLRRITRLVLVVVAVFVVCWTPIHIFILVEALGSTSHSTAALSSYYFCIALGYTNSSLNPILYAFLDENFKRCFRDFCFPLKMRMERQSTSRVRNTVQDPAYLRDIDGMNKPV

Series [2] concerns the target T2, KOP receptor (Homo sapiens, UniProt P41145). As to the kind of experiment: ERK 1/2 activation, inhibition. The format is cell-based.
For series [3], the target named is T2, KOP receptor. As to the kind of experiment: 35S-GTPγS coupling, inhibition. Type of series: biochemical.
Series [4] concerns the target T1, KOR. As to the kind of experiment: PDSP radioligand binding assay. The settings on record: Table 5. How it is done: The compound was initially screened in radioligand binding assays at a constant concentration (10 μM) to identify possible activity of the compound. Results showing significant activity in the initial screen were selected for Ki determinations.
As a representative of the Chemotype II series, the MLPCN probe molecule 2{8} was subjected to a binding assay panel of 44 GPCR and other molecular targets by the Pyschoactive Drug Screening Program (PDSP) (Table 10). The compound was initially screened in a radioligand binding assay at a constant concentration (10 μM) to identify possible activity of the compound. Results showing significant activity in the initial screen were selected for Ki determinations.

The target of series [5] is T1, KOR. As to the kind of experiment: High content imaging β-arrestin translocation assay, KOR antagonist (KOR HCS). Type of series: cell-based.
Excerpt: as §1, §2

Another series in a line: physchem. The conditions noted are these: 23 °C, pH 7.4, aqueous buffer. How it is done: In addition to profiling the selectivity of this class of KOR ligands, basic pharmacological properties were assessed.

Each structure is given as a SMILES string. ≈ marks a conversion by molar mass, not a printed value.

Broadly, the Ki is a dissociation constant, usually derived from enzyme kinetics or from competition with a known ligand. The low end stands for tighter binding, the high end for weaker binding. The term solubility denotes the concentration that dissolves in the medium under given conditions. For `COc1ccc(N2CCN(CCCNC(=O)Cn3c(=O)c4cccn4c4c(C)ccnc43)CC2)cc1` [Compound 1{3}, N-(3-(4-(4-Methoxyphenyl)piperazin-1-yl)propyl)-2-(1-methyl-6-oxopyrido[2,3-e]pyrrolo[1,2-a]pyrazin-5(6H)-yl)acetamide], the IC50 on KOR [1] is 120 nM; on KOP receptor [2] it was 330 ± 29.4 nM; at KOP receptor [3], 434 ± 154 nM; at KOR [5] (antagonist, average, read-out: Potency, Target KOR HCS) it was 3 nM. At KOR [4], this compound displayed a Ki of 129 nM. Further, on KOR [5] (β-arrestin translocation assays), the “selectivity for the KOR over both the DOR and MOR” value is reported as “over 10,000 fold”. The solubility in the series “physchem” was found to be 12.9 µg/mL (≈ 26.4 µM).

Source of the values: patent US9345703B2, “Kappa opioid receptor effectors and uses thereof” (University of Kansas, priority 2011, dated 2016).
